Test system: Mycobacterium tuberculosis H37 Rv
Assay: Therapeutic effect on mice infected with tuberculosis, groups of 20 (FIG. 1)
Settings: oral, 200 μg/mouse once a day, six days a week; for 38 days from the beginning of the treatment

With `COC1C=COC2(C)Oc3c(C)c(O)c4c(=O)c(c5oc6cc(N7CCN(CC(C)C)CC7)cc(O)c6nc-5c4c3C2=O)NC(=O)C(C)=CC=CC(C)C(O)C(C)C(O)C(C)C(OC(C)=O)C1C` (stereo not shown) [Derivative No. 2] the dead mice was “there was not observed any dead mouse”.

From patent US4983602A, “3'-hydroxybenzoxazinorifamycin derivative, process for preparing the same and antibacterial agent containing the same” (Kanegafuchi Kagaku Kogyo Kabushiki Kaisha, priority 1988, dated 1991)
